Measurements taken from ChEMBL document CHEMBL1138080, “Design and synthesis of novel 2-amino-5-hydroxyindole derivatives that inhibit human 5-lipoxygenase” (J Med Chem, 2006).

Assays:
[1] = target: T1, Polyunsaturated fatty acid 5-lipoxygenase (Homo sapiens) (UniProt P09917); experiment: Inhibition of 5-LOX in A-23187-stimulated […] at 10 uM
T1 sequence (whole entry): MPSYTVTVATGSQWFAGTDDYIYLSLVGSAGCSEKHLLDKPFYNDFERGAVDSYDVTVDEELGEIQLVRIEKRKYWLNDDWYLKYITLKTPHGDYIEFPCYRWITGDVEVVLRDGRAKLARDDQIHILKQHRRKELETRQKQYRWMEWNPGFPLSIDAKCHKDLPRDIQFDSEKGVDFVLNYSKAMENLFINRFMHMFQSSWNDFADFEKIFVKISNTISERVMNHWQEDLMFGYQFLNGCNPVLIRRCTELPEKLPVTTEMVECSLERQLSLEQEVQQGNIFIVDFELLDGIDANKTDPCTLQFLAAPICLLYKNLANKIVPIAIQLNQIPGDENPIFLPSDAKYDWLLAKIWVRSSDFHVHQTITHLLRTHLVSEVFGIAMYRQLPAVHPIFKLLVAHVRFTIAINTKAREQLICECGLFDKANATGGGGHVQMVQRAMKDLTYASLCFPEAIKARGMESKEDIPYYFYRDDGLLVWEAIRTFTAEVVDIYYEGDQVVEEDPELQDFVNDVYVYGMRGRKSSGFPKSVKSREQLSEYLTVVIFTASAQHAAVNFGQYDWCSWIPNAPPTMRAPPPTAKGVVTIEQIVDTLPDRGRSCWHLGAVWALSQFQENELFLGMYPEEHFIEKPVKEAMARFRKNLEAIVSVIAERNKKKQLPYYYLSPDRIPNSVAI
In short: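 Freshly isolated human PMNL (10^7 in 1 mL PBS with 1 mg/mL glucose and 1 mM CaCl2) were preincubated with compound at 37 °C. They were then stimulated with 2.5 µM ionophore A23187 for 10 min at 37 °C and stopped with methanol, with prostaglandin B1 added as standard. 5-LO products were measured as mean ± SE, n = 3-4 (10 µM screen or IC50).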

[2] = target: T1, Polyunsaturated fatty acid 5-lipoxygenase (Homo sapiens); experiment: Inhibition of 5-LOX at 10 uM
In short: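 5-LO was human recombinant, expressed in E. coli JM 109 (pT3-5LO). Lysis, ammonium sulfate precipitation and a 100000g spin gave the S100 supernatant used as enzyme source. The assay contained 1 mM ATP and test compound or DMSO vehicle, and the enzyme was incubated with 20 µM arachidonic acid. The screen used 10 µM, with concentration-response for IC50.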

- inhibition [1]: 90%
- inhibition [2]: 97%
SMILES: CCOC(=O)c1c(Nc2cccc(Cl)c2)[nH]c2ccc(O)cc12
